Measured values published in ChEMBL document CHEMBL3779820, “Discovery of a Novel Inhibitor of Histone Lysine-Specific Demethylase 1A (KDM1A/LSD1) as Orally Active Antitumor Agent” (J Med Chem, 2016).

Sequences of proteins named here, by UniProt entry; tags and fusion partners are left off.
UniProt P21397, whole entry: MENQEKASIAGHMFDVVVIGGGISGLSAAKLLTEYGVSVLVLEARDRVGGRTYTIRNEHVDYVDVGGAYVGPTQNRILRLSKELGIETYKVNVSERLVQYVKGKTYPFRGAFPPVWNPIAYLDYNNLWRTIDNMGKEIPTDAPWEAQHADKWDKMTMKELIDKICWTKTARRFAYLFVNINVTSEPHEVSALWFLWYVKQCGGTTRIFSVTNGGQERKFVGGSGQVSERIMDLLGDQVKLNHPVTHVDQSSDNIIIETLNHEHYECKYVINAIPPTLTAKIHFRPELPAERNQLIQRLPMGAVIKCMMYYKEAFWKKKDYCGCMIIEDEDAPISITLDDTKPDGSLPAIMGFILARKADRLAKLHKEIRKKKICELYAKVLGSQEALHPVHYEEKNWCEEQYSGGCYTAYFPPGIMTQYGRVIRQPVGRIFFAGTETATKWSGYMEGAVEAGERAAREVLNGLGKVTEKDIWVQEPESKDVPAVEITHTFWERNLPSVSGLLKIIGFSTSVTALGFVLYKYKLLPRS
UniProt P27338, whole entry: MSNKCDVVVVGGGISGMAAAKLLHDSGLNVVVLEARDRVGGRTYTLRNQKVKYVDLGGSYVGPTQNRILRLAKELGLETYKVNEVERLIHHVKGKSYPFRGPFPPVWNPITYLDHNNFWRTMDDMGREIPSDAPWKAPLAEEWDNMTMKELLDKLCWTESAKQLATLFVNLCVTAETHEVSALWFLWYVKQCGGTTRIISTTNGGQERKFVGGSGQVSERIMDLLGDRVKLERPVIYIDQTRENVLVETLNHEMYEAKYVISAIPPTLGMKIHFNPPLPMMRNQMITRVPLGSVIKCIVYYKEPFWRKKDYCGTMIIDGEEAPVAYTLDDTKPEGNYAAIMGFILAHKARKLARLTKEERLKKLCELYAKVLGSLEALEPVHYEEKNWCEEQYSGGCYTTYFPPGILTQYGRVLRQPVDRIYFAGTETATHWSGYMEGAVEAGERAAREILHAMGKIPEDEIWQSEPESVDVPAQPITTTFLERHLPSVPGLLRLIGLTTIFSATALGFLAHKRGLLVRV

Tests used:
[1] = molecular target: Amine oxidase [flavin-containing] A (Homo sapiens, UniProt P21397); assay: Inhibition of human recombinant MAOA expressed in Pichia pastoris preincubated for 15 mins measured after 30 mins by bioluminescent-coupled assay
Summary of the method: (§1)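 Human recombinant KDM1A/CoREST, KDM1B, MAO A and MAO B used as enzyme sources; compounds incubated with the enzyme and results expressed as IC50.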

[2] = molecular target: Amine oxidase [flavin-containing] B (Homo sapiens, UniProt P27338); assay: Inhibition of human recombinant MAOB expressed in Pichia pastoris preincubated for 15 mins measured after 30 mins by bioluminescent-coupled assay; summary of the method: as §1

IC50 [1] [µM] | Structure (SMILES) | IC50 [2] [µM]
0.0312 | N[C@@H]1C[C@H]1c1ccc(NC(=O)c2ccccc2)cc1 | 9
 | N[C@H]1CC[C@H](N[C@@H]2C[C@H]2c2ccccc2)CC1 | > 100
